The series relates to [H][C@@]1(O[C@H]2[C@H](O)[C@@H](O)[C@H](Oc3ccc([N+](=O)[O-])cc3)O[C@@H]2CO)O[C@H](CO)[C@H](O)[C@H](O)[C@H]1O. In words: purified protein. The settings on record: 50 °C, 30 min.

As to “AfCel7A (Aspergillus fumigatus Af293; D276C/G279C)”, where the note is “25 mM citrate pH 5.0, DSB1”, the Km was determined as 1240 ± 500 µM and the kcat came to 0.0522 ± 0.0033 s⁻¹.

In the case of “AfCel7A (Aspergillus fumigatus Af293; D322C/G327C)”, where the note is “25 mM citrate pH 5.0, DSB2”, the Km amounted to 1960 ± 200 µM and the kcat was 0.056 ± 0.0017 s⁻¹.

Consider “AfCel7A (Aspergillus fumigatus Af293; G460C/S465C)”, for which, where the note is “25 mM citrate pH 5.0, DSB4”, the Km was found to be 750 ± 30 µM and the kcat came to 0.0647 ± 0.00017 s⁻¹.

Turning to “AfCel7A (Aspergillus fumigatus Af293; I432C/T416C)”, under “25 mM citrate pH 5.0, DSB3”, the Km was 81 ± 9 µM and the kcat turned out to be 0.162 ± 0.00083 s⁻¹.

For the origin of these results see doi:10.1101/2023.07.13.548902v1.
